{
  "source": "patent US20260151516A1",
  "about": "“NEW PET TRACER FOR IMAGING OF THE FUNCTIONAL HEPATIC RESERVE” (Medizinische Universität Innsbruck, priority 2022, published 2026)",
  "key": {"[1]": {"assay": "Biodistribution studies incl. blocking experiments", "assay_type": "in vivo", "settings": "healthy BALB/c mice", "protocol": "For biodistribution studies 6 week old female BALB/c mice (n=3) were injected with 0.1 nmol (100 μL, approx. 1 MBq) of labelled compound via the lateral tail vein and sacrificed after 10, 30, or 60 min by cervical dislocation. The mice were dissected, blood and organs (spleen, pancreas, stomach, intestine, liver, kidney, heart, lung, muscle, and bone) were weighed, and their activity measured in a γ-counter. For blocking experiments, mice were co-injected with 100 μL of a 277 mM Galactose/PBS solution. In case of [^68Ga]Ga-TRAP-GalNAc a 277 mM N-Acetylgalactose solution was used."}, "Recombinant human ASGR1": {"target": "T1, Recombinant human ASGR1 (Homo sapiens, UniProt P07306)", "T1 construct": "His tag (inferred from immobilisation on Ni-coated plates)", "T1 sequence (P07306 1-291)": "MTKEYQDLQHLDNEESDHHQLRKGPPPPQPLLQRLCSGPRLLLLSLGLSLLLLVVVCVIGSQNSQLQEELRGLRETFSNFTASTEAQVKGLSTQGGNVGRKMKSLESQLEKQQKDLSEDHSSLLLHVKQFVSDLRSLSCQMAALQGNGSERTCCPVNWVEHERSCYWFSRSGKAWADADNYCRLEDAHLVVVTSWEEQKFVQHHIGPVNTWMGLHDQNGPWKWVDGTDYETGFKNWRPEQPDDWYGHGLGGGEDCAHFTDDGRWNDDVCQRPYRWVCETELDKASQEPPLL", "assay": "In vitro binding study, isolated receptor-based assay against ^125I-Asialoorosomucoid", "settings": "recombinant human ASGR1, ^125I-Asialoorosomucoid 50 nM, n = 3; method used [^natGa]Ga-NODAGA-TriGalactan", "protocol": "Inhibitory constant (IC50) values were determined in triplicates using an isolated receptor-based assay as described in literature (Eggink L L et al. J Immunother Cancer 2018; 6:28). Recombinant human ASGR1 was seeded out into Ni-coated 96 well plates (Pierce, Thermo Fisher) in PBS at a concentration of 2 μg/mL for at least 2 h at room temperature under mild agitation (200 1/min). Unbound receptor was removed by washing the wells twice with binding buffer (25 mM Tris×HCl, 150 mM NaCl, 0.05% TWEEN 20, pH=7.4). Next 140 μL of binding buffer as well as 20 μL of a 19 mM CaCl2-solution were added to the wells followed by addition of either 20 μL of PBS (control) or 20 μL of [^natGa]Ga-NODAGA-TriGalactan in PBS. Final ligand concentrations were ranging from 10^−5-10^−11 M. Lastly 20 μL of ^125I-Asialoorosomucoid (50 nM, 2.4 kBq per well) were added and the plate was incubated for 1 hour at room temperature under mild agitation (200 rpm). Supernatants were removed and the wells washed twice with 200 μL of PBS before receptor bound activity was released by addition of 200 μL of hot (60° C.) 1 M NaOH. Wells were incubated with NaOH for 10 min. Lysates were removed and the wells washed again twice with 200 μL of hot NaOH. The activity content in the lysates was quantified in a γ-counter and the values plotted in excel. […]"}, "[2]": {"assay": "Ligand stability in human blood serum (radio-HPLC)", "assay_type": "in vitro ADME", "settings": "37° C.", "protocol": "Ligand stability in human blood serum (n=2) and PBS (n=1) was determined for different time points (2 min, 30 min, 60 min, 120 min). Therefore, approx. 5 MBq of radioligand was added to 1 mL of fresh human serum or PBS and incubated at 37° C. At each given time point 100 μL of the mixture were transferred to a 1.5 mL Eppendorf tube containing 100 μL of acetonitrile. The vial was vortexed and centrifuged for 2 min at 14,000 rpm before 100 μL of the supernatant were diluted with 200 μL of water and injected into analytical radio-HPLC. The PBS solution was directly injected into the radio-HPLC. Ligand stability was determined by integrating the areas of the signals in the radio chromatogram in relation to the signal of the intact ligand."}, "[3]": {"assay": "Partition coefficient (log D), n-Octanol/PBS", "assay_type": "physicochemical", "protocol": "The vials were vortexed for 5 min at 1,500 rpm and then centrifuged for 5 min at 20,000 rcf (Eppendorf Centrifuge 5424). Aliquots of 100 μL were taken out of each phase and the amount of activity was quantified in a γ-counter (Perkin Elmer 2480 Wizard2 3″; Waltham, Massachusetts, USA)."}},
  "note": "“And” between values parts separate entries of the source, which are not always exact repeats. Equal values may be shown once. Marks after values point to notes of the source that are not given here.",
  "data": [
    {"molecule": "O=C(O)CN1CCN(CC(=O)O)CCN([C@H](CCC(=O)NCCCC(=O)NC(COCc2cn(CCOCCOCCO[C@@H]3O[C@H](CO)[C@H](O)[C@H](O)[C@H]3O)nn2)(COCc2cn(CCOCCOCCO[C@@H]3O[C@H](CO)[C@H](O)[C@H](O)[C@H]3O)nn2)COCc2cn(CCOCCOCCO[C@@H]3O[C@H](CO)[C@H](O)[C@H](O)[C@H]3O)nn2)C(=O)O)CC1", "note": "[[^68Ga]Ga-NODAGA-TriGalactan, metal not drawn]", "values": [
      {"measurement": "Biodistribution Heart", "setting": "[1]; 10 min p.i.", "result": "1.18 ± 0.08", "unit": "% ID/g"},
      {"measurement": "Biodistribution Stomach", "setting": "[1]; 10 min p.i.", "result": "1.42 ± 0.23", "unit": "% ID/g"}
    ]},
    {"molecule": "O=C(CCP(=O)([O-])CN1CCN(CP(=O)([O-])CCC(=O)NCc2cn(CCOCCOCCO[C@@H]3O[C@H](CO)[C@H](O)[C@H](O)[C@H]3O)nn2)CCN(CP(=O)([O-])CCC(=O)NCc2cn(CCOCCOCCO[C@@H]3O[C@H](CO)[C@H](O)[C@H](O)[C@H]3O)nn2)CC1)NCc1cn(CCOCCOCCO[C@@H]2O[C@H](CO)[C@H](O)[C@H](O)[C@H]2O)nn1.[68Ga+3]", "note": "[[^68Ga]Ga-TRAP-Galactan]", "values": [
      {"measurement": "Liver-to-organ ratio Stomach", "setting": "[1]; 30 min p.i.", "result": "31.8 ± 7.8"}
    ]},
    {"molecule": "O=C(CCP(=O)([O-])CN1CCN(CP(=O)([O-])CCC(=O)NCc2cn([C@@H]3O[C@H](CO)[C@H](O)[C@H](O)[C@H]3O)nn2)CCN(CP(=O)([O-])CCC(=O)NCc2cn([C@@H]3O[C@H](CO)[C@H](O)[C@H](O)[C@H]3O)nn2)CC1)NCc1cn([C@@H]2O[C@H](CO)[C@H](O)[C@H](O)[C@H]2O)nn1.[68Ga+3]", "note": "[[^68Ga]Ga-Galacto-TRAP]", "values": [
      {"measurement": "Biodistribution Muscle", "setting": "[1]; 30 min p.i.", "result": "1.42 ± 0.21", "unit": "% ID/g"}
    ]},
    {"molecule": "[^99mTc]Tc-diethylenetriamine-pentaacetic acid galactosyl human serum albumin [[^99mTc]Tc-GSA, reference compound]", "values": [
      {"measurement": "IC50", "setting": "Recombinant human ASGR1", "result": 72, "unit": "nM"},
      {"measurement": "Serum stability (% of intact ligand)", "setting": "[2]; 2 min", "result": "82 ^[x] %"},
      {"measurement": "Serum stability (% of intact ligand)", "setting": "[2]; 30 min", "result": "76 ^[x] %"},
      {"measurement": "Serum stability (% of intact ligand)", "setting": "[2]; 60 min", "result": "70 ^[x] %"},
      {"measurement": "Serum stability (% of intact ligand)", "setting": "[2]; 120 min", "result": "65 ^[x] %"},
      {"measurement": "logD", "setting": "[3]", "result": "−1.88±0.02"},
      {"measurement": "Biodistribution Blood", "setting": "[1]; 10 min p.i.", "result": "3.13 ± 0.15", "unit": "% ID/g"},
      {"measurement": "Biodistribution Femur", "setting": "[1]; 10 min p.i.", "result": "1.54 ± 0.18", "unit": "% ID/g"},
      {"measurement": "Biodistribution Heart", "setting": "[1]; 10 min p.i.", "result": "1.47 ± 0.07", "unit": "% ID/g"},
      {"measurement": "Biodistribution Intestine", "setting": "[1]; 10 min p.i.", "result": "1.10 ± 0.05", "unit": "% ID/g"},
      {"measurement": "Biodistribution Kidneys", "setting": "[1]; 10 min p.i.", "result": "7.35 ± 0.51", "unit": "% ID/g"},
      {"measurement": "Biodistribution Liver", "setting": "[1]; 10 min p.i.", "result": "58.1±6.7 % ID/g and 58.1 ± 6.68 % ID/g"},
      {"measurement": "Biodistribution Lung", "setting": "[1]; 10 min p.i.", "result": "2.04 ± 0.11", "unit": "% ID/g"},
      {"measurement": "Biodistribution Muscle", "setting": "[1]; 10 min p.i.", "result": "0.60 ± 0.04", "unit": "% ID/g"},
      {"measurement": "Biodistribution Pancreas", "setting": "[1]; 10 min p.i.", "result": "0.64 ± 0.02", "unit": "% ID/g"},
      {"measurement": "Biodistribution Spleen", "setting": "[1]; 10 min p.i.", "result": "1.37 ± 0.16", "unit": "% ID/g"},
      {"measurement": "Biodistribution Stomach", "setting": "[1]; 10 min p.i.", "result": "0.91 ± 0.01", "unit": "% ID/g"},
      {"measurement": "Biodistribution Blood", "setting": "[1]; 30 min p.i.", "result": "2.76 ± 0.57", "unit": "% ID/g"},
      {"measurement": "Biodistribution Femur", "setting": "[1]; 30 min p.i.", "result": "3.64 ± 1.98", "unit": "% ID/g"},
      {"measurement": "Biodistribution Heart", "setting": "[1]; 30 min p.i.", "result": "1.08 ± 0.16", "unit": "% ID/g"},
      {"measurement": "Biodistribution Intestine", "setting": "[1]; 30 min p.i.", "result": "6.41 ± 1.05", "unit": "% ID/g"},
      {"measurement": "Biodistribution Kidneys", "setting": "[1]; 30 min p.i.", "result": "10.5 ± 2.00", "unit": "% ID/g"},
      {"measurement": "Biodistribution Liver", "setting": "[1]; 30 min p.i.", "result": "51.3 ± 2.78", "unit": "% ID/g"},
      {"measurement": "Biodistribution Lung", "setting": "[1]; 30 min p.i.", "result": "1.64 ± 0.20", "unit": "% ID/g"},
      {"measurement": "Biodistribution Muscle", "setting": "[1]; 30 min p.i.", "result": "0.45 ± 0.06", "unit": "% ID/g"},
      {"measurement": "Biodistribution Pancreas", "setting": "[1]; 30 min p.i.", "result": "0.48 ± 0.07", "unit": "% ID/g"},
      {"measurement": "Biodistribution Spleen", "setting": "[1]; 30 min p.i.", "result": "1.42 ± 0.39", "unit": "% ID/g"},
      {"measurement": "Biodistribution Stomach", "setting": "[1]; 30 min p.i.", "result": "1.61 ± 0.20", "unit": "% ID/g"},
      {"measurement": "Biodistribution Blood", "setting": "[1]; 60 min p.i.", "result": "1.98 ± 0.10", "unit": "% ID/g"},
      {"measurement": "Biodistribution Femur", "setting": "[1]; 60 min p.i.", "result": "2.48 ± 0.48", "unit": "% ID/g"},
      {"measurement": "Biodistribution Heart", "setting": "[1]; 60 min p.i.", "result": "0.81 ± 0.07", "unit": "% ID/g"},
      {"measurement": "Biodistribution Intestine", "setting": "[1]; 60 min p.i.", "result": "9.8±1.6 % ID/g and 9.80 ± 1.61 % ID/g"},
      {"measurement": "Biodistribution Kidneys", "setting": "[1]; 60 min p.i.", "result": "9.21 ± 0.21", "unit": "% ID/g"},
      {"measurement": "Biodistribution Liver", "setting": "[1]; 60 min p.i.", "result": "46.3±5.9 % ID/g and 46.3 ± 5.88 % ID/g"},
      {"measurement": "Biodistribution Lung", "setting": "[1]; 60 min p.i.", "result": "1.38 ± 0.11", "unit": "% ID/g"},
      {"measurement": "Biodistribution Muscle", "setting": "[1]; 60 min p.i.", "result": "0.39 ± 0.00", "unit": "% ID/g"},
      {"measurement": "Biodistribution Spleen", "setting": "[1]; 60 min p.i.", "result": "1.18 ± 0.20", "unit": "% ID/g"},
      {"measurement": "Biodistribution Stomach", "setting": "[1]; 60 min p.i.", "result": "2.43 ± 1.45", "unit": "% ID/g"}
    ]},
    {"molecule": "O=C(CCP(=O)([O-])CN1CCN(CP(=O)([O-])CCC(=O)NCc2cn(CCOCCOCCO[C@@H]3O[C@H](CO)[C@@H](O)[C@H](O)[C@H]3O)nn2)CCN(CP(=O)([O-])CCC(=O)NCc2cn(CCOCCOCCO[C@@H]3O[C@H](CO)[C@@H](O)[C@H](O)[C@H]3O)nn2)CC1)NCc1cn(CCOCCOCCO[C@@H]2O[C@H](CO)[C@@H](O)[C@H](O)[C@H]2O)nn1.[68Ga+3]", "note": "[[^68Ga]Ga-TRAP-Gluco, reference compound]", "values": [
      {"measurement": "Biodistribution Heart", "setting": "[1]; 10 min p.i.", "result": "1.54 ± 0.11", "unit": "% ID/g"}
    ]}
  ]
}
